Measured values taken from patent US9394282B2, “Pyrazole carboxamides as Janus kinase inhibitors” (Merck Sharp & Dohme Corp., priority 2011, dated 2016).

The chains behind the UniProt entries cited, without tags or fusion partners. Residues count along the entry.
UniProt P23458, 875-1153: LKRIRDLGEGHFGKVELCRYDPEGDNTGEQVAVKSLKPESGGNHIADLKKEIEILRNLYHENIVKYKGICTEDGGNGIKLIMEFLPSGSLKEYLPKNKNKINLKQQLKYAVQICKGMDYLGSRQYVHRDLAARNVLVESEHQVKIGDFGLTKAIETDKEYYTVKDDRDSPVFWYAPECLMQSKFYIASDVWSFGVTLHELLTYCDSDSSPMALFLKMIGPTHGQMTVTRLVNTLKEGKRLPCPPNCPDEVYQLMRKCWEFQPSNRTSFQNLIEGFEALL
UniProt O60674, 849-1124: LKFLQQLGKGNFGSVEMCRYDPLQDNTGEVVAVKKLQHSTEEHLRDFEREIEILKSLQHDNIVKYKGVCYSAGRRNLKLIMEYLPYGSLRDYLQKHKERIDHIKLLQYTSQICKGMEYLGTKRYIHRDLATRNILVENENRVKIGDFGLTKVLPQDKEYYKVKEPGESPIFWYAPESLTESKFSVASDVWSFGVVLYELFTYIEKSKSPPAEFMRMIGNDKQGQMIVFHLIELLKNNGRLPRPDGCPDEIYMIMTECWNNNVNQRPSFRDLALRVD

Tests used:
JAK1 = JAK1 (Homo sapiens (Human), UniProt P23458); assay: Jak biochemical HTRF assay, JAK1; settings: recombinant purified GST-tagged catalytic domain; HTRF format; [ATP] 31.8 μM
Excerpt: (§1) Jak Biochemical HTRF Assay Protocol
(§2) Subsequent reagent additions employed an Agilent Bravo.

JAK2 = JAK2 (Homo sapiens (Human), UniProt O60674); assay: Jak biochemical HTRF assay, JAK2; settings: recombinant purified GST-tagged catalytic domain; HTRF format; [ATP] 8.5 μM
Excerpt: as §1, §2

| IC50 (JAK1) | IC50 (JAK2) | SMILES |
| --- | --- | --- |
| 0.03 nM | 0.2 nM | C[C@](O)(c1ccc(Nc2nn([C@H]3COCC[C@@H]3C#N)cc2C(N)=O)cc1)C(F)F (single isomer, unassigned) [Example 9-16, 1-[(3R,4S or 3S,4R)-4-cyanotetrahydro-2H-pyran-3-yl]-3-({4-[(1S or 1R)-2,2-difluoro-1-hydroxy-1-methylethyl]phenyl}amino)-1H-pyrazole-4-carboxamide] |
| 0.05 nM | 0.2 nM | C[C@@](O)(c1ccc(Nc2nn([C@H]3COCC[C@@H]3C#N)cc2C(N)=O)cc1)C(F)F (single isomer, unassigned) [Example 9-17, 1-[(3R,4S or 3S,4R)-4-cyanotetrahydro-2H-pyran-3-yl]-3-({4-[(1R or 1S)-2,2-difluoro-1-hydroxy-1-methylethyl]phenyl}amino)-1H-pyrazole-4-carboxamide] |
| 3 nM | 12 nM | C[C@](O)(c1ccc(Nc2nn([C@@H]3COCC[C@H]3C#N)cc2C(N)=O)cc1)C(F)F (single isomer, unassigned) [Example 9-18, 1-[(3S,4R or 3R,4S)-4-cyanotetrahydro-2H-pyran-3-yl]-3-({4-[(1S or 1R)-2,2-difluoro-1-hydroxy-1-methylethyl]phenyl}amino)-1H-pyrazole-4-carboxamide] |
| 2 nM | 9 nM | C[C@@](O)(c1ccc(Nc2nn([C@@H]3COCC[C@H]3C#N)cc2C(N)=O)cc1)C(F)F (single isomer, unassigned) [Example 9-19, 1-[(3S,4R or 3R,4S)-4-cyanotetrahydro-2H-pyran-3-yl]-3-({4-[(1R or 1S)-2,2-difluoro-1-hydroxy-1-methylethyl]phenyl[amino)-1H-pyrazole-4-carboxamide] |
